The entries are a selection whose mix differs from that of the whole data set. Records with an inconclusive call do not appear. The source made the active and inactive calls. Calls come from the whole dose curve.
assay: Primary qHTS Assay for Foot and Mouth Disease Virus Antivirals against NCGC Sytravon and CBC Compound Libraries: Firefly Luciferase Signal; conditions: FMDV antiviral cell assay; at 22.9 µM (top of the series) unless noted; note: nearly all actives have a fitted effect of over 60% in size
% is set by controls: 0 for no effect and ±100 for the full control effect.

Compound	activity change, negative = inhibition
CCC(=O)N(c1ccccc1)C1(COC)CCN(CCc2cccs2)CC1	inactive: -7.37%
CCC(=O)N(c1ccccc1)C1(COC)CCN(CCn2nnn(CC)c2=O)CC1	inactive: 0.764%
CN(CCCl)CCCl	inactive: -2.4% [at 11.5 µM]

— PubChem BioAssay AID1745856 (National Center for Advancing Translational Sciences (NCATS), 2022)
